The source of these data is PubChem BioAssay AID1224865 (Sanford-Burnham Center for Chemical Genomics, 2016).

Amino acid sequences for entries named in this document (tags omitted).
UniProt P41235, whole entry: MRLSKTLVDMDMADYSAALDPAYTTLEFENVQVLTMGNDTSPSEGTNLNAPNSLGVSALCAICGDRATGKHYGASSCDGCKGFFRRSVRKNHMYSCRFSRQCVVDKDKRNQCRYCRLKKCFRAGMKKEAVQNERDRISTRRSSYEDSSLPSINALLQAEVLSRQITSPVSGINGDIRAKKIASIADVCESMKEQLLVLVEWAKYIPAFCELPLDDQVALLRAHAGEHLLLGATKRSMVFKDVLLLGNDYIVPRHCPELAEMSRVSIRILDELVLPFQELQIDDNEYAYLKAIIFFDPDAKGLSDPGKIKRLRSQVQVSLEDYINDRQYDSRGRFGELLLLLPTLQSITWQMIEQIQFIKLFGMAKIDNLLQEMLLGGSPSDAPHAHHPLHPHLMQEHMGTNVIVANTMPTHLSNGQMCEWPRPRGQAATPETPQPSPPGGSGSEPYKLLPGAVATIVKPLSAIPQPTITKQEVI

The entries are a selection whose mix differs from that of the whole data set. Calls of active or inactive are those of the source. Cut-off read from the data, not from the text of the source: active = activity change above about 30% (passing the limit was not always enough); inactive = the rest.

In the test the target is Hepatocyte nuclear factor 4-alpha (Homo sapiens) (UniProt P41235). Description: HNF4-alpha DNA association modulation – biochemical, fluorescence polarization, FITC-DNA, primary screen (AID 1224865). To be noted: HNF4a-FITC DNA binding, 1 h, at 10 µM, hits give high values. (Polarisation of emitted light reports the rotation of a fluorescent probe.)
`O=c1[nH]c2ccccc2n1C1CCN(C(c2ccccc2)c2nnnn2C2CCCCC2)CC1` (stereo not drawn): the activity change is inactive: -4.22%.
As for `O=c1[nH]c2ccccc2n1C1CCN(C(c2cccc3ccccc23)c2nnnn2C2CCCC2)CC1` (stereo not drawn), the activity change is inactive: -2.35%.
`COc1cc(C(=O)NCC2(N(C)C)CCCCC2)ccc1OC(F)F`: the activity change is inactive: -0.14%.
With `CCOC(=O)N1CCC(Nc2cccc(C)c2)CC1` the figure was inactive: 4.46%; with `CCOc1ccc(C)cc1CN(CCCl)CCCl`, inactive: 1.78%; with `CC(C)(C)n1nnnc1C(c1ccccc1)N1CCC(n2c(=O)[nH]c3ccccc32)CC1` (stereo not drawn), inactive: 0.51%.
With `O=C1CCN(Cc2ccccc2)CC1` the figure was inactive: 8.79%; with `O=C(NCC1(N2CCCCC2)CCCCC1)c1ccc(F)cc1`, inactive: 2.05%; with `O=P1(N(CCCl)CCCl)SCCCS1`, inactive: -5.29%.
With `CCCCn1nnnc1C(c1cc2ccccc2o1)N1CCC(n2c(=O)[nH]c3ccccc32)CC1` (stereo not drawn) the figure was inactive: 0.39%; with `CCCCOc1ccc(C(=O)NCC2(N3CCOCC3)CCCCC2)cc1`, inactive: -1.48%; with `COc1ccc(NC2CCN(CCc3ccccc3)CC2)c(OC)c1`, inactive: -2.25%.
`CCOC(=O)N1CCC(Nc2ccc(F)cc2)CC1`: the activity change was inactive: -0.66%.
As for `O=C(NCC1(N2CCOCC2)CCCCC1)c1cc2ccccc2o1`, the activity change was inactive: 0.06%.
With `O=c1[nH]c2ccccc2n1C1CCN(C(c2ccccc2OC(F)(F)F)c2nnnn2C2CCCCC2)CC1` (stereo not drawn) the figure was inactive: -0.08%; with `O=C(NCC1(N2CCCCC2)CCCCC1)c1ccc(Cl)nc1`, inactive: -0.16%; with `Cc1cc(C)cc(N(C(=O)c2ccccc2)C2CCN(C(=O)OC(C)(C)C)CC2)c1`, inactive: 2.42%.
For the molecule `CCOC(=O)N1CCC(Nc2ccc(OC)cc2)CC1`, the activity change is inactive: 1.62%.
With `CCCCn1nnnc1C(c1ccc(OC)cc1)N1CCC(n2c(=O)[nH]c3ccccc32)CC1` (stereo not drawn) the figure was inactive: 2.82%; with `O=C(OC1CN2CCC1CC2)C1c2ccccc2Oc2ccccc21` (stereo not drawn), inactive: -11.3%; with `O=c1[nH]c2ccccc2n1C1CCN(C(c2cc3ccccc3o2)c2nnnn2C2CCCCC2)CC1` (stereo not drawn), inactive: -0.61%.
Regarding `N#CC1(Nc2ccccc2)CCN(Cc2ccccc2)CC1`, the activity change was inactive: -1.64%.
With `O=C(NCC1(N2CCCCC2)CCCCC1)c1ccc(Cl)s1` the figure was inactive: 3.39%.
With `COc1ccc(Cl)cc1C(=O)NCC1(N2CCOCC2)CCCCC1` the figure was inactive: 0.97%; with `O=C(NCC1(N2CCCCC2)CCCCC1)c1ccc(=O)[nH]c1`, inactive: -0.81%; with `CCCCn1nnnc1C(c1cccs1)N1CCC(n2c(=O)[nH]c3ccccc32)CC1` (stereo not drawn), inactive: 1.74%.
With `CCCCn1nnnc1C(CC)N1CCC(n2c(=O)[nH]c3ccccc32)CC1` (stereo not drawn) the figure was inactive: -0.93%; with `O=C(NCC1(N2CCCCC2)CCCCC1)c1cccs1`, inactive: -1.49%; with `COc1ccc(C(=O)NCC2(N3CCCCC3)CCCCC2)cc1`, inactive: 2.77%.
For the molecule `CCC(c1nnnn1C1CCCC1)N1CCC(n2c(=O)[nH]c3ccccc32)CC1` (stereo not drawn), the activity change is inactive: 1.44%.
Take `COc1ccc(C(=O)NCC2(N3CCCCC3)CCCCC2)c(OC)c1OC`: the activity change was inactive: -2.19%.
Turning to `CC(C)(C)OC(=O)N1CCC(N(C(=O)c2ccccc2)c2ccc(F)cc2)CC1`, the activity change is inactive: 0.48%.
With `CSc1ccccc1C(=O)NCC1(N2CCCCC2)CCCCC1` the figure was inactive: 2.34%; with `Cc1cccc(NC2(C#N)CCN(Cc3ccccc3)CC2)c1`, inactive: 10.1%.
`O=C(NCC1(N2CCCCC2)CCCCC1)c1cncc(Br)c1`: the activity change is inactive: 0.95%.
With `CN1CCC(Nc2cccc(F)c2)CC1` the figure was inactive: -2.44%; with `Cc1ccc(C(=O)NCC2(N(C)C)CCCCC2)o1`, inactive: -2.5%.
With `CCCOc1ccc(C(=O)NCC2(N(C)C)CCCCC2)cc1OC` the figure was inactive: -1.86%; with `COc1ccc(C(c2nnnn2C2CCCC2)N2CCC(n3c(=O)[nH]c4ccccc43)CC2)cc1` (stereo not drawn), inactive: 4.75%; with `COc1ccc(CN(CCCl)CCCl)cc1Cl`, inactive: -1.88%.
With `CN(C)c1cccc(C(=O)NCC2(N3CCCCC3)CCCCC2)c1` the figure was inactive: -1.18%.
On to `CC(C)c1ccc(NC2CCN(C(=O)OC(C)(C)C)CC2)cc1`, for which the activity change was inactive: 0.1%.
With `CCCCn1nnnc1C(c1ccccc1OC(F)(F)F)N1CCC(n2c(=O)[nH]c3ccccc32)CC1` (stereo not drawn), the activity change was inactive: 1.08%.
With `CCCCn1nnnc1C(c1ccnc2ccccc12)N1CCC(n2c(=O)[nH]c3ccccc32)CC1` (stereo not drawn) the figure was inactive: -2.95%; with `COc1cc(OC)c(C(=O)NCC2(N(C)C)CCCCC2)cc1OC`, inactive: -0.9%; with `O=C(NCC1(N2CCOCC2)CCCCC1)c1cc(F)c(F)cc1Cl`, inactive: 0.02%.
With `CCC(c1nnnn1C(C)(C)C)N1CCC(n2c(=O)[nH]c3ccccc32)CC1` (stereo not drawn), the activity change was inactive: 2.63%.
As for `O=C(NCC1(N2CCCCC2)CCCCC1)c1cccc(C(F)(F)F)c1`, the activity change is inactive: 1.8%.
Take `CCCCn1nnnc1C(c1cccc2ccccc12)N1CCC(n2c(=O)[nH]c3ccccc32)CC1` (stereo not drawn): the activity change is inactive: 0.57%.
With `CN1CCN(CCOC(=O)C(O)(c2ccccc2)c2ccccc2)CC1` the figure was inactive: 3.22%; with `COc1ccc(NC2CCN(C(=O)OC(C)(C)C)CC2)cc1`, inactive: -0.91%.
With `CC(C)c1ccc(C(=O)NCC2(N3CCOCC3)CCCCC2)cc1` the figure was inactive: -0.83%; with `COc1cc(C(=O)NCC2(N3CCCCC3)CCCCC2)ccc1OC(F)F`, inactive: 0.42%.
Regarding `O=C(NCC1(N2CCOCC2)CCCCC1)c1cc(=O)[nH]c2ccccc12`, the activity change is inactive: 0.83%.
With `CC(C)(C)n1nnnc1C(c1ccccc1OC(F)(F)F)N1CCC(n2c(=O)[nH]c3ccccc32)CC1` (stereo not drawn) the figure was inactive: -7.1%.
`O=C(NCC1(N2CCCCC2)CCCCC1)c1ccc(OC(F)F)cc1`: the activity change is inactive: 4.66%.
With `CSc1ccc(C(=O)NCC2(N3CCOCC3)CCCCC2)cc1` the figure was inactive: 0.2%; with `O=C(NCC1(N2CCCCC2)CCCCC1)c1cccc([N+](=O)[O-])c1`, inactive: 5.6%; with `CCN1CCC(Nc2ccc(Cl)cc2)CC1`, inactive: 1.41%.
Regarding `N#CC1(Nc2ccccc2)CCN(CCc2ccccc2)CC1`, the activity change is inactive: -2.83%.
For `O=c1[nH]c2ccccc2n1C1CCN(C(c2ccccc2OC(F)(F)F)c2nnnn2C2CCCC2)CC1` (stereo not drawn), the activity change was inactive: 0.9%.
`c1ccc(CN2CCC(Nc3ccccc3)CC2)cc1`: the activity change is inactive: -2.99%.
With `CCCN1CCC(Nc2cc(OC)cc(OC)c2)CC1` the figure was inactive: -4.13%; with `O=c1[nH]c2ccccc2n1C1CCN(C(c2ccccc2)c2nnnn2C2CCCC2)CC1` (stereo not drawn), inactive: 1.24%; with `Cc1cc(N(CCCl)CCCl)ccc1C=O`, inactive: -3%.
As for `CN(C)C1(CNC(=O)c2cccc(C#N)c2)CCCCC1`, the activity change was inactive: -0.96%.
For the molecule `CC(C)(C)n1nnnc1C(c1cccc2ccccc12)N1CCC(n2c(=O)[nH]c3ccccc32)CC1` (stereo not drawn), the activity change is inactive: -1.34%.
With `CC(C)(C)OC(=O)N1CCC(N(C(=O)c2ccccc2)c2ccc(Cl)cc2)CC1` the figure was inactive: -1.26%.
With `N#Cc1ccc(C(=O)NCC2(N3CCCCC3)CCCCC2)cc1` the figure was inactive: 5.49%; with `N/C(=N\O)c1c(N)no[n+]1[O-]`, inactive: 1.64%.
With `COc1cccc(C(c2nnnn2C(C)(C)C)N2CCC(n3c(=O)[nH]c4ccccc43)CC2)c1OC` (stereo not drawn) the figure was inactive: 0.28%; with `CCOC(=O)N1CCC(Nc2ccc(C)cc2)CC1`, inactive: 0.07%.
As to `CCCCn1nnnc1C(c1cccc(OC)c1OC)N1CCC(n2c(=O)[nH]c3ccccc32)CC1` (stereo not drawn), the activity change is inactive: 1.51%.
With `O=C(OC1CN2CCC1CC2)C1c2ccccc2C=Cc2ccccc21` (stereo not drawn) the figure was inactive: -1.6%; with `O=c1[nH]c2ccccc2n1C1CCN(C(c2cccs2)c2nnnn2C2CCCC2)CC1` (stereo not drawn), inactive: 0.63%; with `O=C(NCC1(N2CCOCC2)CCCCC1)c1cc(Br)ccc1Cl`, inactive: 2%.
With `CCCCn1nnnc1C(c1ccccc1)N1CCC(n2c(=O)[nH]c3ccccc32)CC1` (stereo not drawn) the figure was inactive: -4.46%; with `COc1cc(C(=O)NCC2(N3CCOCC3)CCCCC2)cc(OC)c1C`, inactive: -0.75%; with `COc1ccc(C(=O)NCC2(N3CCOCC3)CCCCC2)cc1OC`, inactive: 2.33%.
Turning to `O=c1[nH]c2ccccc2n1C1CCN(C(c2ccnc3ccccc23)c2nnnn2C2CCCC2)CC1` (stereo not drawn), the activity change is inactive: -0.08%.
With `O=c1[nH]c2ccccc2n1C1CCN(C(c2cccs2)c2nnnn2C2CCCCC2)CC1` (stereo not drawn) the figure was inactive: 3.99%; with `CCC(CO)(C(=O)OC1CN2CCC1CC2)c1ccccc1` (stereo not drawn), inactive: -0.55%; with `COc1cccc(C(c2nnnn2C2CCCC2)N2CCC(n3c(=O)[nH]c4ccccc43)CC2)c1OC` (stereo not drawn), inactive: -2.04%.
With `COc1cc(OC)cc(C(=O)NCC2(N3CCOCC3)CCCCC2)c1` the figure was inactive: 1.37%; with `COc1cccc(C(=O)N(c2cc(C)cc(C)c2)C2CCN(C(=O)OC(C)(C)C)CC2)c1`, inactive: 1.39%; with `CN1CCC(Nc2ccc(Cl)cc2)CC1`, inactive: -0.45%.
On to `CCOc1ncccc1C(=O)NCC1(N2CCOCC2)CCCCC1`, for which the activity change is inactive: 4.68%.
For the molecule `CN1CCC(Nc2ccc(F)c(Cl)c2)CC1`, the activity change was inactive: -3.93%.
With `CCCOc1ccc(C(=O)NCC2(N(C)C)CCCCC2)cc1` the figure was inactive: 0.39%.
With `O=c1[nH]c2ccccc2n1C1CCN(C(c2cc3ccccc3o2)c2nnnn2C2CCCC2)CC1` (stereo not drawn) the figure was inactive: 3.37%.
For the molecule `CC(C)(C)OC(=O)N1CCC(Nc2ccccc2)CC1`, the activity change is inactive: -6.97%.
With `O=C(O)C1(Nc2ccccc2)CCN(Cc2ccccc2)CC1` the figure was inactive: -1.12%.
`NN(c1ccccc1)C1CCN(CCc2ccccc2)CC1`: the activity change is inactive: -1.41%.
On to `Cc1ccccc1NC1(C#N)CCN(Cc2ccccc2)CC1`, for which the activity change was inactive: -1.29%.
With `CC(C)(C)n1nnnc1C(c1ccnc2ccccc12)N1CCC(n2c(=O)[nH]c3ccccc32)CC1` (stereo not drawn) the figure was inactive: -0.32%; with `COc1ccc(C(c2nnnn2C2CCCCC2)N2CCC(n3c(=O)[nH]c4ccccc43)CC2)cc1` (stereo not drawn), inactive: 2.59%; with `CCN1CCC(Nc2cccc(F)c2)CC1`, inactive: 1.19%.
In the case of `O=C(NCC1(N2CCCCC2)CCCCC1)c1ccco1`, the activity change is inactive: 5.9%.
With `Cn1c(=O)[nH]cc(N(CCCl)CCCl)c1=O` the figure was inactive: -1.51%; with `CN(C)c1ccc(C(=O)NCC2(N3CCCCC3)CCCCC2)cc1`, inactive: 4.03%; with `O=c1[nH]c2ccccc2n1C1CCN(C(c2ccnc3ccccc23)c2nnnn2C2CCCCC2)CC1` (stereo not drawn), inactive: 1.32%.
Take `COc1cc(OC)cc(C(=O)NCC2(N3CCCCC3)CCCCC2)c1`: the activity change was inactive: 0.97%.
Regarding `CC(=O)N(c1ccccc1)C1CCNCC1`, the activity change is inactive: 1.89%.
With `COc1cccc(C(c2nnnn2C2CCCCC2)N2CCC(n3c(=O)[nH]c4ccccc43)CC2)c1OC` (stereo not drawn) the figure was inactive: -0.38%; with `CCC(c1nnnn1C1CCCCC1)N1CCC(n2c(=O)[nH]c3ccccc32)CC1` (stereo not drawn), inactive: 1%.
With `Cc1ccc(NC2(C#N)CCN(Cc3ccccc3)CC2)cc1` the figure was inactive: 0.25%; with `Cc1ccc(C(=O)NCC2(N3CCCCC3)CCCCC2)o1`, inactive: -1.66%.
With `Fc1ccccc1NC1CCN(Cc2ccccc2)CC1` the figure was inactive: -4.95%.
